This assay has as its target T1, SHIP2 (Homo sapiens, UniProt O15357).
T1 construct: purchased Echelon Biosciences
T1 sequence (O15357 1-1258): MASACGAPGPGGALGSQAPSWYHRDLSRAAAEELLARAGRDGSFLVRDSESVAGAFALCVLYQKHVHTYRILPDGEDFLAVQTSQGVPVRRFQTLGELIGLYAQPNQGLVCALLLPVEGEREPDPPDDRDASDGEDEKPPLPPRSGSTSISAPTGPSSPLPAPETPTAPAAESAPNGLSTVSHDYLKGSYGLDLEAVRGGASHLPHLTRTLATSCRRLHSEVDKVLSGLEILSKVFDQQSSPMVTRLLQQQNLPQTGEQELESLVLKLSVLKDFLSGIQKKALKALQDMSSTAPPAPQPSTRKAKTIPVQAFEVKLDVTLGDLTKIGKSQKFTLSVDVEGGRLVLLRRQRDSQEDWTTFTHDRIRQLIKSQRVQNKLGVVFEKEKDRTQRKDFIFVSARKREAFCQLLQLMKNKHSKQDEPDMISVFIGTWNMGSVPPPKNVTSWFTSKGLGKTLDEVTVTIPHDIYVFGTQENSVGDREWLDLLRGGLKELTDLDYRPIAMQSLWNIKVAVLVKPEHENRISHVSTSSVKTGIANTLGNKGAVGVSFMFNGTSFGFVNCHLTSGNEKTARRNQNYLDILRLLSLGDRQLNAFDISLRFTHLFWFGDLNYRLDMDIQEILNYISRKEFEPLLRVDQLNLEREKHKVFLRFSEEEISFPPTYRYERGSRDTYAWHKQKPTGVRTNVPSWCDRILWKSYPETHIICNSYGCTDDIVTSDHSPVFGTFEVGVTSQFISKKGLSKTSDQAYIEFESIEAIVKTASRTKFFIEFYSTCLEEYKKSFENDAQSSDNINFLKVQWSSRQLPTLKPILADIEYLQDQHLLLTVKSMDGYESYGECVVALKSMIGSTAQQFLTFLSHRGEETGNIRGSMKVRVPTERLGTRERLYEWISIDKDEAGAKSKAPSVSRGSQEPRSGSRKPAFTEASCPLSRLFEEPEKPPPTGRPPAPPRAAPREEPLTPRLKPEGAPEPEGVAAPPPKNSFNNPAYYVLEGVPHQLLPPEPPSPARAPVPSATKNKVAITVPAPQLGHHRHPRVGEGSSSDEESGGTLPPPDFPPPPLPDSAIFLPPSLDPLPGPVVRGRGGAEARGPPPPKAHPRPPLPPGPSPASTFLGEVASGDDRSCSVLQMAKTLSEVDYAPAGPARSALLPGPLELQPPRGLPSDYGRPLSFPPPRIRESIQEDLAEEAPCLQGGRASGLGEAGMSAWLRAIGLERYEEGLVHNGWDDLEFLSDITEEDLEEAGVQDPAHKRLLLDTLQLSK
The assay is described as follows: Fluorescence Polarization (FP) assay for the detection of PI(3,4)P2, SHIP2. Format: biochemical. The following applies: read-out: IC50 SHIP2 (via FP). (In general: Fluorescence polarisation rises when a labelled molecule tumbles more slowly, as on binding a larger partner.)

What is called IC50 is the midpoint of a concentration-inhibition curve.

On to `CSc1ccc2c(c1)c(CCN)c(C)n2Cc1ccc(Cl)cc1.Cl` [Compound 7b, 2-(1-(4-Chlorobenzyl)-2-methyl-5-(methylthio)-1H-indol-3-yl)ethanaminium chloride], for which the IC50 was 14 µM.

Values taken from publication PMC9738565, “N1-Benzyl Tryptamine Pan-SHIP1/2 Inhibitors: Synthesis and Preliminary Biological Evaluation as Anti-Tumor Agents” (Molecules, 2022).
